Results as given in paper PMC11470957, “Principles of paralog-specific targeted protein degradation engaging the C-degron E3 KLHDC2” (Nature Communications, 2024).
Read-outs that look alike come from different tables or passages of the source.

Sequences of proteins named here, by UniProt entry; tags and fusion partners are left off. Residues count along the entry.
UniProt Q9Y2U9, 15-361 limits assumed: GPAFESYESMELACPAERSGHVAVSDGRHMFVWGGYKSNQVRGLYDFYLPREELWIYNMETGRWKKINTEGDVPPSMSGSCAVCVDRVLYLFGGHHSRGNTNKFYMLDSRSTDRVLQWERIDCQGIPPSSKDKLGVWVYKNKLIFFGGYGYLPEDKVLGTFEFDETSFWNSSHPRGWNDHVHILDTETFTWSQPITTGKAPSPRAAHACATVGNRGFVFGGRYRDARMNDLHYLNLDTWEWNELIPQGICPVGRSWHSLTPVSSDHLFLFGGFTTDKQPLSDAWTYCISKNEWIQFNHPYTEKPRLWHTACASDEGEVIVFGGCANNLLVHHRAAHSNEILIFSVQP

Columns and labels:
[1] = biological target: T1, KLHDC2^SBD (Homo sapiens, UniProt Q9Y2U9); test: TR-FRET assay, competition with di-Gly degron peptide binding to KLHDC2^SBD; details: read-out: TR-FRET IC50; inhibition of KLHDC2^SBD binding to a di-Gly degron peptide
[2] = biological target: T1, KLHDC2^SBD; test: Surface plasmon resonance binding to KLHDC2; details: read-out: SPR Kd
[3] = biological target: T1, KLHDC2^SBD; test: Thermal shift assay (Sypro Orange) probing stabilization of KLHDC2^SBD; format: binding; details: for ΔTm at 50 µM: 50 µM compound

Compound	IC50 [1] [µM]	Kd [2] [µM]	ΔTm at 50 µM [3] [°C]	ΔTm at 50 µM ([3]; tested form: DIPEA salt) [°C]	Kd ([2]; tested form: DIPEA salt) [µM]	Thermal shift ΔTm ([3]; KLHDC2^SBD, ligand concentration not given, tested form: HCl) [°C]
COc1ccn(-c2nc(CC(=O)NCC(=O)O)cs2)c(=O)c1	57.6	13.5	–	–	–	–
COCCOc1ccc(-c2nc(CC(=O)NCC(=O)O)cs2)c(Cl)c1	23.8	9.15	3.9 ± 0.4	–	–	–
COCOc1ccc(-c2nc(CC(=O)NCS(=O)(=O)O)cs2)c(Cl)c1	–	–	–	0.3 ± 0.05	> 2000	–
COc1ccc(-n2ccn(CC(=O)NCC(=O)O)c2=O)c(Cl)c1	–	181	–	–	–	–
COCOc1ccc(-c2nc(CC(=O)NCC(=O)O)cs2)cc1C	27.6	21.7	2.6 ± 0.4	–	–	–
O=C(O)CNC(=O)Cc1csc(-c2ccc3cccc(OCCN4CCNCC4)c3c2)n1	–	–	–	–	–	4.8 ± 0.08
COCOc1ccc(-c2nc(CC(=O)NCC(=O)O)cs2)cc1	75.3	30	2.2 ± 0.2	–	–	–
